This test concerns the target JAK1 (Homo sapiens (Human), UniProt P23458). The experiment in a line: JAK1 Inhibition Assay (Omnia kinase fluorescence peptide substrate assay, 1 mM ATP). The test is classed as biochemical. The following applies: read-out: JAK1 Enzyme IC50 1 mM ATP, averaged IC50 ranges. The source says:
The assays described in Examples A, B, C and D for the determination of Tyk2, JAK1, JAK2 and JAK3 kinase activity, respectively, utilized the Omnia® Kinase fluorescence peptide substrate-based technology (Invitrogen). The specific components of the assay mixture are described in Examples A, B, C and D. In these assays, Mg^2+ is chelated upon phosphorylation of the Omnia peptide by the kinase to form a bridge between the chelation-enhanced fluorophore Sox and the phosphate, resulting in an increase in fluorescence emission at 485 nm when excited at […]. The reactions were therefore read at excitation 360 nm and emission was measured at 485 nm every 50 seconds for 45 minutes using a PerkinElmer EnVision Multilabel Plate Reader.
The final buffer conditions for Tyk2, JAK1, JAK2, and JAK3 assays were as follows: 25 mM HEPES, pH 7.4, 10 mM MgCl2, 0.01% Triton X-100 and 1 mM DTT.
Two-μL aliquots of these were transferred to a fresh plate for a ten-fold intermediate dilution with assay buffer. Five-μL aliquots of the diluted compounds were then transferred to 20-μL of assay mixtures described in Examples A, B, C and D for a final concentration of DMSO of 2%. […] For each plate, percent of control (POC) values were calculated for each well according to the following equation: […]

Chains of the proteins cited; added tags and fusions are not shown. Residues count along the entry.
UniProt P23458, 866-1154: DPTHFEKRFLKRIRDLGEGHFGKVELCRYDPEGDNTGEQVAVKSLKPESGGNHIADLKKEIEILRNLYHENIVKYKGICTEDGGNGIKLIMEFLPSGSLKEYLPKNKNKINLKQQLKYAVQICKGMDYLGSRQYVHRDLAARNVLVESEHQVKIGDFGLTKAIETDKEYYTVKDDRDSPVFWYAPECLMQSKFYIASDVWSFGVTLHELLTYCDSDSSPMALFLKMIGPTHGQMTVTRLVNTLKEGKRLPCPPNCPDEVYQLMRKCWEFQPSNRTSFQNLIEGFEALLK

The IC50 is the point on the concentration scale where inhibition reaches its midpoint.

“(R)-3-(4-(4-(1-((S)-2,2-dimethylcyclopentyl)-1H-pyrazol-4-yl)pyrazolo[1,5-a]pyrazin-6-yl)-1H-pyrazol-1-yl)propane-1,2-diol [Example 95]”: the IC50 lay in the range of 1 to 10 µM.

(Values after US11028093B2, “4,6-substituted-pyrazolo[1,5-a]pyrazines as janus kinase inhibitors” (Array BioPharma Inc., priority 2014, dated 2021).)
